Values quoted from earlier work, collected in patent publication US6486173B2, “5-HT7 receptor antagonists” (Bristol-Myers Squibb Pharma Company, priority 1998, dated 2002).

By UniProt entry, the sequences of proteins in these tests, tags left out.
UniProt P34969, whole entry: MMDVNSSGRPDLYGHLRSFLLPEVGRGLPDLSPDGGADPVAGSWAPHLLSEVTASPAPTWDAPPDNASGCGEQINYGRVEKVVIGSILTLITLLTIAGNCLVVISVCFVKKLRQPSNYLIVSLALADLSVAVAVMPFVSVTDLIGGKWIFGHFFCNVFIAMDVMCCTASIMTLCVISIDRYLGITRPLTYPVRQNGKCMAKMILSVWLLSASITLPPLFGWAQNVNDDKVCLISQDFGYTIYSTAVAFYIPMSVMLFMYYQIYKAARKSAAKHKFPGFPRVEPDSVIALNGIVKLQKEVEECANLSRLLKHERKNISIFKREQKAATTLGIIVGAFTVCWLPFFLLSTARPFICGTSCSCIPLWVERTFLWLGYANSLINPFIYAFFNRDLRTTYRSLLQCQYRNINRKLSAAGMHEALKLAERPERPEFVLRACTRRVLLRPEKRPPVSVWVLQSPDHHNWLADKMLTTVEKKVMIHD

Target: 5-HT7 receptor (Homo sapiens, UniProt P34969)
Details: cited from earlier work

**Q.** With methiothepin as the substance, how does the 5-HT7 receptor affinity read?
**A.** high 5-HT7 receptor affinity
